Values quoted from earlier work in patent US20090233942A1, “Genetic markers associated with response to antidepressants” (priority 2008, published 2009).

Protein sequences, listed by entry. Tags and fused reporters are not part of them.
UniProt P10635, whole entry: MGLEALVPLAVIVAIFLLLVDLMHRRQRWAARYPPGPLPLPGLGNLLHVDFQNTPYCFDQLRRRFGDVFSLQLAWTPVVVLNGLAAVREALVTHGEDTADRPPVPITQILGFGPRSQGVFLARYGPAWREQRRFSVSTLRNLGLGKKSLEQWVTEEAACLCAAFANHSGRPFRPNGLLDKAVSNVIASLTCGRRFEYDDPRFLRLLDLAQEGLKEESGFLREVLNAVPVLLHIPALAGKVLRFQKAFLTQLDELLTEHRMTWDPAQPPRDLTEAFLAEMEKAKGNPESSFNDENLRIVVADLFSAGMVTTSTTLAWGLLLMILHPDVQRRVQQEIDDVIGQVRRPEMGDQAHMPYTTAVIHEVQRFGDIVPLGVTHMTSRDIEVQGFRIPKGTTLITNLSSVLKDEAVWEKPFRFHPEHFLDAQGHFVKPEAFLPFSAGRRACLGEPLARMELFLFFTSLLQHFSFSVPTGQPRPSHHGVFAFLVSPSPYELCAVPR

Biological target: CYP2D6 (Homo sapiens, UniProt P10635)
Conditions: cited from earlier work

For `CNCCC(Oc1ccc(C(F)(F)F)cc1)c1ccccc1` (stereo not shown) [fluoxetine], the “inhibition of CYP2D6” value is given as “inhibit”.
